# Values quoted from earlier work in patent US20100068786A1, “METHODS AND COMPOSITIONS FOR REVERSING P-GLYCOPROTEIN MEDICATED DRUG RESISTANCE” (priority 2008, published 2010).
# By UniProt entry, the sequences of proteins in these tests, tags left out.
# UniProt P21447, whole entry: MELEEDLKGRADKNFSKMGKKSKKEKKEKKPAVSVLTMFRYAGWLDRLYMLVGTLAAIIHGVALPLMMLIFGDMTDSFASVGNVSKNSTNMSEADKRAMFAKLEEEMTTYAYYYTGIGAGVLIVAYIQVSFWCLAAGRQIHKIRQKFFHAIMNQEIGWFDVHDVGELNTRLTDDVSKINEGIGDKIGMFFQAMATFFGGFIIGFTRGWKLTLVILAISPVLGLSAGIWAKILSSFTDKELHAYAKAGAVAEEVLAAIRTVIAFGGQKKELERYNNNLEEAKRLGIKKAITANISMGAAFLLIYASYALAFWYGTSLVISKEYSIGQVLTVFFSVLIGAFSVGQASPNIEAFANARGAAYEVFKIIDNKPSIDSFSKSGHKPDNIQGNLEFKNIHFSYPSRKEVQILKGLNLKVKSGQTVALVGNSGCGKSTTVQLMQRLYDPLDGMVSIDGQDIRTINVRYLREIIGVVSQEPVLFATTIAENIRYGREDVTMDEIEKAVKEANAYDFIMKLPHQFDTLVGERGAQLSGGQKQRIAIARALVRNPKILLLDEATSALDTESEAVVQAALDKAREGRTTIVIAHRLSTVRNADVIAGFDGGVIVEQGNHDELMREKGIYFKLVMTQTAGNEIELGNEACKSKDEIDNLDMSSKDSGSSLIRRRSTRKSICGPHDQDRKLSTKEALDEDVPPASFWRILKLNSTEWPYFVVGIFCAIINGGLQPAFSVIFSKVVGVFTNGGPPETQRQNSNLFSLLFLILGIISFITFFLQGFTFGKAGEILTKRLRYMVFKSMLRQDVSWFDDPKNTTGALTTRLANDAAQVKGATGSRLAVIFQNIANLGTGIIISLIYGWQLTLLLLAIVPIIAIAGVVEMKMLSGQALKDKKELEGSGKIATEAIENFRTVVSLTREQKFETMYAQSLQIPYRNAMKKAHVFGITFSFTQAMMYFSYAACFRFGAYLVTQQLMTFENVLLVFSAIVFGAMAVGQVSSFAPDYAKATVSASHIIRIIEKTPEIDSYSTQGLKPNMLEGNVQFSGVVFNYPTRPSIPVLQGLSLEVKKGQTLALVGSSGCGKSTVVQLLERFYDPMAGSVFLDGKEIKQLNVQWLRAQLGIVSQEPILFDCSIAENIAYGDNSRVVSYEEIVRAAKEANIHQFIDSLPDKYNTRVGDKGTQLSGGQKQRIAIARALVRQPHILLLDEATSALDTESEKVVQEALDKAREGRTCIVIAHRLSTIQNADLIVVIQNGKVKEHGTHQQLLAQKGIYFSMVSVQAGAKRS
# Target: P-gp (Mus musculus, UniProt P21447)
# Settings: mdr1a(−/−) knock out mice vs control wild-type mice; cited from earlier work
smiles,measurement,value
Cc1nc2n(c(=O)c1CCN1CCC(c3noc4cc(F)ccc34)CC1)CCCC2 [risperidone],increase of brain-to-serum ratio,over 10 times
